The term EC50 denotes the concentration giving half of the maximal effect.

By UniProt entry, the sequences of proteins in these tests, tags left out.
UniProt P35372, whole entry: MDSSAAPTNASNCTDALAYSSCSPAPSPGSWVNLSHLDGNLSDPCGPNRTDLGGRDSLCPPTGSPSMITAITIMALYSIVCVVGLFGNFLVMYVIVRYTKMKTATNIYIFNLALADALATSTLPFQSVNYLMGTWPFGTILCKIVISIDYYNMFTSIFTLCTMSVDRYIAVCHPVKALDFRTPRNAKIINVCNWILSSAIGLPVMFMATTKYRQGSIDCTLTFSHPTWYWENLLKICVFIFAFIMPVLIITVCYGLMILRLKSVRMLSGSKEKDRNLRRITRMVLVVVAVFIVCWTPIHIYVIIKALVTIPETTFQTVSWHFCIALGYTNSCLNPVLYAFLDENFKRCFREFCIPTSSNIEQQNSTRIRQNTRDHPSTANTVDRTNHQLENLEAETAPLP

Molecules are shown by their SMILES.

In this experiment the target is mu opioid receptor (MOR) (Homo sapiens, UniProt P35372). Briefly: MOR cAMP agonist assay.

Regarding `C[C@H](CC(=O)NC[C@H](Cc1ccc(C(N)=O)cc1)N(C)C)c1ccccc1` [Compound A-10, 4-((S)-2-(dimethylamino)-3-((R)-3-phenylbutanamido)propyl)benzamide], the EC50 is > 1000 nM.

Source of the values: US20210147343A1 (priority 2018, published 2021).
